Patent publication US20250051277A1, “DELIVERY OF THERAPEUTIC ALKALOID COMPOUNDS” (Sensorium Therapeutics, Inc., priority 2021, published 2025)

What follows are compounds tested against SERT (Homo sapiens (Human), UniProt P31645) (assay: cell-based). Conditions: not given.
Format: cell-based
`COc1ccc([C@@]23CCC(=NNC(=O)c4ccncc4)C[C@@H]2N(C)CC3)cc1OC` [Compound 157, N-[[(3aS,7aS)-3a-(3,4-dimethoxyphenyl)-1-methyl-2,3,4,5,7,7a-hexahydroindol-6-ylidene]amino]pyridine-4-carboxamide] gave a pIC50 greater than 7.30. Compound `COc1ccc([C@@]23CCC(=NNC(=O)CC(CC(=O)O)CC(C)C)C[C@@H]2N(C)CC3)cc1OC` (stereo partly drawn) [Compound 242, 3-[2-[2-[(3aS,7aS)-3a-(3,4-dimethoxyphenyl)-1-methyl-2,3,4,5,7,7a-hexahydroindol-6-ylidene]hydrazino]-2-oxo-ethyl]-5-methyl-hexanoic acid] has a pIC50 greater than 7.30. `COc1ccc([C@@]23CC/C(=N\NC(=O)NC[C@H]4CC[C@H](C(=O)O)CC4)C[C@@H]2N(C)CC3)cc1OC` [Compound 258, 4-[[[[(3aS,7aS)-3a-(3,4-dimethoxyphenyl)-1-methyl-2,3,4,5,7,7a-hexahydroindol-6-ylidene]amino]carbamoylamino]methyl]cyclohexanecarboxylicacid] gave a pIC50 greater than 7.30.

Same assay, conditions: read-out: SERT IC50
`COc1ccc([C@@]23CCN(C)[C@@H]2CC2(CC3)OCCS2)cc1OC` (stereo partly drawn) [Compound 070, (3′aR,7′aR)-3′a-(3,4-dimethoxyphenyl)-1′-methyl-spiro[1,3-oxathiolane-2,6′-2,3,4,5,7,7a-hexahydroindole]] showed a pIC50 of 6.30 to 7.00. Compound `COc1ccc([C@]23CCN(C)[C@H]2CC2(CC3)OC[C@@H](c3ccccc3)O2)cc1OC` (stereo partly drawn) [Compound 081, (3′aS,4R,7′aS)-3′a-(3,4-dimethoxyphenyl)-1′-methyl-4-phenyl-spiro[1,3-dioxolane-2,6′-2,3,4,5,7,7a-hexahydroindole]] has a pIC50 greater than 7.30. Work on `COc1cccc(C2COC3(CC[C@@]4(c5ccc(OC)c(OC)c5)CCN(C)[C@H]4C3)O2)c1` (stereo partly drawn) [Compound 111, (3′aS,7′aS)-3′a-(3,4-dimethoxyphenyl)-4-(3-methoxyphenyl)-1′-methyl-spiro[1,3-dioxolane-2,6′-2,3,4,5,7,7a-hexahydroindole]] yielded a pIC50 greater than 7.30. `COc1ccc([C@@]23CCC(=NNCCc4ccccc4)C[C@@H]2N(C)CC3)cc1OC` [Compound 159, N-[[(3aS,7aS)-3a-(3,4-dimethoxyphenyl)-1-methyl-2,3,4,5,7,7a-hexahydroindol-6-ylidene]amino]-2-phenyl-ethanamine] was tested, and the pIC50 was greater than 7.30.

pIC50: −log10 of the molar value.
